Measured values from patent US7547700B2, “Aryl-[4-halo-4(heteroarylmethylamino)-methyl]-piperidin-1-1yl]-methanone derivatives, methods for production and use thereof as medicaments” (PIERRE Fabre Medicament, priority 2002, dated 2009).

By UniProt entry, the sequences of proteins in these tests, tags left out.
UniProt P19327, whole entry: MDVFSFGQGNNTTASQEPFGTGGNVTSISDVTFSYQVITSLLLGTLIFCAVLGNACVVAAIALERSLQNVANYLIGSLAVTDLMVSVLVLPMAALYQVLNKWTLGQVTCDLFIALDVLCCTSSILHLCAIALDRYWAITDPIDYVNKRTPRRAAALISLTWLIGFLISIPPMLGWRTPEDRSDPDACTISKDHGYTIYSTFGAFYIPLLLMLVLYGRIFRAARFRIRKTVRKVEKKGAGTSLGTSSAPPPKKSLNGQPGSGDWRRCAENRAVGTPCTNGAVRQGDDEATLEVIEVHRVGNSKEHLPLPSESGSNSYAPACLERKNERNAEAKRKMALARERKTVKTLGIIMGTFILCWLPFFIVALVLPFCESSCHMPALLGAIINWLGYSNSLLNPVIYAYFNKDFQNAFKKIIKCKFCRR
UniProt P61169, whole entry: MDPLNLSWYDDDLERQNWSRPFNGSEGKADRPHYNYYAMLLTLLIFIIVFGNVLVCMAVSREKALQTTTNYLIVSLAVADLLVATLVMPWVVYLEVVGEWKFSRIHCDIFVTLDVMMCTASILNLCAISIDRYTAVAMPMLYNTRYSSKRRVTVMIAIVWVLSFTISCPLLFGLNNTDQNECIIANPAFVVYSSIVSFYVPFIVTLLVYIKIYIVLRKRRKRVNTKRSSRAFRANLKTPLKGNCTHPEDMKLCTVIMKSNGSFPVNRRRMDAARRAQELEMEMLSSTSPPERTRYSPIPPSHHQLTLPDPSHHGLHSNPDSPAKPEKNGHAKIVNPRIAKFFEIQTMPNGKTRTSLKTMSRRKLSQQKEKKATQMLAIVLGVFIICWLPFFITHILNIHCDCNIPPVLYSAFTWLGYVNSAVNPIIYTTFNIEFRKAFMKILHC

Legend:
5-HT1A receptors = target: T1, 5-HT1A receptors (Rattus norvegicus, UniProt P19327); experiment: Affinity for the 5-HT1A receptors, displacement of [3H]8-OH-DPAT; assay type: binding; settings: ratio of 5-HT1A to D2 affinity
T1 construct: For these experiments, rat cerebral cortices are used; from tissue; host or cells: rat cerebral cortex homogenate
Procedure: Measurement of the affinity of the compounds in the invention for the 5-HT1A receptors
For these experiments, rat cerebral cortices are used. After thawing the brain in Tris-HCl buffer (50 mmol, pH=7.4) at 25° C., the cerebral cortex is removed and homogenized in 20 volumes of buffer maintained at 4° C. The homogenate is centrifuged at 39 000×g for 10 minutes, and the centrifugation pellet is suspended in the same volume of buffer and recentrifuged. After resuspending under the same conditions, the homogenate is incubated for 10 minutes at 37° C. and then recentrifuged. The final pellet is suspended in cold Tris-HCl reaction buffer (50 mmol) at 25° C. containing […] of pargyline, 4 mmol of CaCl2 and 0.10% of ascorbic acid. The final concentration of tissue in the incubation medium is 10 mg/tube.
The nonspecific binding is defined by using […] of serotonin. The reaction tubes are incubated at 23° C. for 30 minutes and their content is then rapidly filtered under vacuum through Whatman GF/B filters, and the tubes are rinsed with twice 5 ml of tris-HCl buffer at 25° C. The radio-activity collected on the filter is analyzed by liquid scintillation, by adding 4 ml of scintillant liquid (Emulsifier Safe, Packard, Warrenville, USA). All the experiments are performed in triplicate.

[1] = target: T2, dopaminergic D2 receptors (Rattus norvegicus, UniProt P61169); experiment: Affinity for the D2 receptors, displacement of [3H]YM-09151-2; assay type: binding; settings: D2 pKi, rat striatum, [3H]YM-09151-2 displacement, mean of at least 3 experiments
T2 construct: For these experiments, rat striatum is used; from tissue; host or cells: rat striatum homogenate
Procedure: Measurement of the affinity of the compounds of the invention for the D2 receptors
For these experiments, rat striatum is used. After thawing the brain in Tris-HCl buffer (50 mmol, pH=7.4) at 25° C., the striatum is removed and homogenized in 40 volumes of buffer maintained at 4° C. The homogenate is centrifuged at 20 000×g for 10 minutes, and the centrifugation pellet is suspended in the same volume of buffer and recentrifuged. The final pellet is suspended in cold Tris-HCl reaction buffer at 25° C. containing 120 mmol of NaCl and 5 mmol of KCl. The final concentration of tissue in the incubation medium is 2 mg/tube. […] The nonspecific binding is defined by using […] of (+)-butaclamol. The reaction tubes are incubated at 23° C. for 60 minutes and their content is then rapidly filtered through Whatman GF/B filters, and the tubes are rinsed twice with 5 ml of Tris-HCl buffer at 25° C. The radioactivity collected on the filter is analyzed by liquid scintillation, by adding 4 ml of scintillant liquid (Emulsifier Safe, Packard). All the experiments are performed in triplicate.

## Cc1ccc(CNCC2(F)CCN(C(=O)c3ccc(F)c(Cl)c3)CC2)nc1 [Compound I-66, (3-chloro-4-fluorophenyl)(4-fluoro-4-{[(5-methylpyridin-2-ylmethyl)-amino]methyl}piperidin-1-yl)methanone, reference compound]
5-HT1A receptors
  Selectivity 5-HT1A/D2: >1000
[1]
  Ki: > 10 µM
